# Measurements as given in patent US8530636B2, “Method for regulating protein function in cells in vivo using synthetic small molecules” (priority 2008, dated 2013).
# Test system: L106P-RhoA, L106P-Cdc42, Arl7-L106P
# Type: cell-based, human
# Settings: NIH3T3, Shield1-treated, mock-treated or Shield1 removed
# Description: At this time, cells were washed once with PBS, plated at 8×10^3 cells in 4-well LabTek Chambered coverglass (NUNC) coated with 1 mg/ml poly-D-lysine (Sigma), along with mock-treated transduced cells and transduced cells treated with 1 μM Shield1. Cells were cultured for 24 hr in 10% DBS, then cultured in serum-free media for 12 hr. Cells were then washed with PBS, fixed in 4% paraformaldehyde for 15 min, permeabilized in 0.2% Triton X-100 for 5 min, stained with 1 μg/ml Alexa Fluor 488-conjugated phalloidin (Invitrogen; A12379) in PBS for 20 min, and washed with PBS. Fixed cells were imaged using a Bio-Rad Radiance 2100 confocal microscope.
# Expression of constitutively active small GTPases causes well-characterized changes in cellular morphology (Heo, W. D. and Meyer, T. (2003) Cell 113:315-328). To determine if FKBP-derived destabilizing domains, in combination with Shield1, could affect cell morphology by modulating GTPases levels, several small GTPases (i.e., RhoA, Cdc42, or Arl7) were fused to the destabilizing domains (FIGS. 4A and 4B). […] . […] Mock treatment with Shield1 produced cells with fibroblast-like morphologies. These GTPase-dependent morphology changes were reversible, as treatment with Shield1 followed by removal of Shield1 also produced cells with fibroblast-like morphologies. […]
substance,measurement,value
"1-[2-(3,4,5-trimethoxy-phenyl)-butyryl]-piperazine-2-carboxylic acid 3-(3,4-dimethoxy-phenyl)-1-[3-(2-morpholin-4-yl-ethoxy)-phenyl]-propyl ester [Shield1]",Cells displaying the predicted morphology,> 90%
